The results in this text go back to PMC8279409, “Novel Mixed NOP/Opioid Receptor Peptide Agonists” (Journal of Medicinal Chemistry, 2021).

Amino acid sequences for entries named in this document (tags omitted).
UniProt P35372, whole entry: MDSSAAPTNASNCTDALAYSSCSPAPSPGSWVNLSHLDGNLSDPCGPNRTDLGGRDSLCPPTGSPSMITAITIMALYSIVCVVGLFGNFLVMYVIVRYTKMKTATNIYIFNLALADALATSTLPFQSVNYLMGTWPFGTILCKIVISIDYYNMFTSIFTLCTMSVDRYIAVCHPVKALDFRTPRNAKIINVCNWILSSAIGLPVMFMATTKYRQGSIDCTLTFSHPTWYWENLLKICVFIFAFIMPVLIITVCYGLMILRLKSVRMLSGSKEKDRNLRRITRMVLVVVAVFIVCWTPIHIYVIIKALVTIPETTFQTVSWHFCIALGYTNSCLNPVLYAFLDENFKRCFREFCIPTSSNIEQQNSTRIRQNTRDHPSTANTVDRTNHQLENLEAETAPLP

Values joined by “and” are separate entries in the source; they are usually repeats but may differ in a detail not shown here. Equal entries are not always repeated.

Test [1] concerns the target T1, human mu receptor (Homo sapiens, UniProt P35372).
T1 construct: expressed in transfected cells; host or cells: CHO cells stably coexpressing the receptor and chimeric Gαqi5
Briefly: Calcium mobilization, mu opioid receptor. The format is cell-based. As for the experimental part: CHO cells stably coexpressing the human NOP or kappa or the mu receptor and the C-terminally modified Gαqi5 and CHO cells coexpressing the delta receptor and the GαqG66Di5 protein were generated and cultured as described previously.[45],[46] Cells were maintained in Dulbecco’s modified Eagle’s medium/nutrient mixture F-12 (DEMEM/F-12) supplemented with 10% FBS, 100 U/mL penicillin and 100 μg/mL streptomycin, 100 μg/mL hygromicin B, and 200 μg/mL G418 and cultured at 37 °C in 5% CO2 humidified air. Cells were seeded at a density of 50,000 cells/well into 96-well black, clear-bottom plates. The following day, the cells were incubated with Hanks’ balanced salt solution (HBSS) supplemented with 2.5 mM probenecid, 3 μM of the calcium-sensitive fluorescent dye Fluo-4 AM, and 0.01% pluronic acid for 30 min at 37 °C. […] After placing both plates (cell culture and master plate) into the fluorometric imaging plate reader FlexStation II (Molecular Devices, Sunnyvale, CA), fluorescence changes were measured. […] Maximum change in fluorescence, expressed as percent over the baseline fluorescence, was used to determine agonist response.
(§1) The pharmacological terminology adopted in this paper is consistent with IUPHAR recommendations.[59] All data are expressed as the mean ± standard error of the mean (SEM) of at least three experiments performed in duplicate. […]
A general note: Calcium assays in cells follow changes in intracellular calcium, usually with a dye or a luminescent sensor.

The target in test [2] is T1, human mu receptor. Briefly: Dynamic mass redistribution (DMR), mu receptor. The format is cell-based. As to conditions: CHO cells expressing human mu receptor, 60 min, 37 °C, mean of at least three experiments in duplicate, CL95% in brackets, read-out: mu pEC50 (CL95%) (converted). As for the experimental part: CHO cells stably expressing the human NOP and mu receptors were kindly provided by D.G. Lambert (University of Leicester, UK). Cells were cultured in DMEM/F-12 medium supplemented with 10% FBS, 100 U/mL penicillin, 100 μg/mL streptomycin, and 2 mmol/L L-glutamine. The medium was supplemented with 400 μg/mL G418 to maintain expression. Cells were cultured at 37 °C in 5% CO2 humidified air. For DMR measurements, the label-free EnSight Multimode Plate Reader (Perkin Elmer, MA, US) was used. Cells were seeded 15,000 cells/well in a volume of 30 μL onto fibronectin-coated 384-well DMR microplates and cultured for 20 h to obtain confluent monolayers. Cells were starved in the assay buffer (HBSS with 20 mM HEPES, 0.01% BSA fraction V) for 90 min before the test. Serial dilutions were made in the assay buffer. After reading the baseline, compounds were added in a volume of 10 μL; then, DMR changes were recorded for 60 min. Responses were described as picometer (pm) shifts over time (sec) following subtraction of values from vehicle-treated wells. Maximum picometer (pm) modification (peak) was used to generate concentration response curves. […]
as §1

As to `C[C@@H](NC(=O)[C@@H](N)Cc1ccc(O)cc1)C(=O)N[C@@H](Cc1ccccc1)C(=O)NCC(=O)N[C@@H](Cc1ccc(O)cc1)C(=O)N1CCC[C@H]1C(=O)N[C@@H](CO)C(N)=O` [Compound 2, dermorphin, reference compound], the EC50 on human mu receptor [1] was 19.5 nM and 14.8 nM and 7.08 nM; at human mu receptor [2] it was 1.2 nM.
